# AlphaSeq binding of Ab-14 light chain variants to a spike HR2 peptide

Data: MIT Lincoln Laboratory AlphaSeq set, Li et al. 2023, doi:10.1038/s41467-023-39022-2, as distributed in FLAb.

The target is the same throughout: PDVDLGDISGINAS, from the HR2 region of SARS-CoV-2 spike.

The variants keep the heavy chain, the linker and the frameworks of Ab-14 (scFv order VH, three GGGGS repeats, VL).
VH: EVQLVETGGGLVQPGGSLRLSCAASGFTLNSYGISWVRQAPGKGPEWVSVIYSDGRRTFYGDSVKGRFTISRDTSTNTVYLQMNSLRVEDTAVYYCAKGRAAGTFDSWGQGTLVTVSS
VL: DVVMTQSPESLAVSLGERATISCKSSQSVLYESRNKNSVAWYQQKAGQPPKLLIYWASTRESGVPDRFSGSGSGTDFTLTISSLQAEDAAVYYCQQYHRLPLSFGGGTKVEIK

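The starting antibody came from a phage panning campaign against this peptide. Designed CDR sequences, proposed from the first random library and measured here. Their group label is 14L_En_Gen (En: ensemble of fine-tuned language models; Gen: genetic algorithm). In AlphaSeq, yeast of one mating type display the scFv and yeast of the other type display the target. Mating (16 h, 30 °C) was followed by selection of diploids and sequencing of their barcodes. Read counts were normalised to the haploid input and turned into Kd by a linear fit to BCL2-family pairs of known affinity, for each replicate. The assay was run in six technical replicates.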

Each variant is given by its three light chain CDRs, as the data file delimits them; those of the parent are KSSQSVLYESRNKNSVA, WASTRES, QQYHRLPLS.
Scale: log10 of Kd in nM, estimated from mating counts; low values are strong binders.
"ND" marks a missing value. The strain was present, yet no cells mated with the target were sequenced in that replicate, which points to weak or no binding.
Three control strains display no target. For all light chain designs, 4% of the pairings with them gave a signal, with a median of 2.64 and one signal in twenty below 1.59, so weak values seen in few replicates may be background. For each scFv, signals with the empty controls are counted beside the result, with their mean in brackets.

CDR-L1	CDR-L2	CDR-L3	log10 Kd, replicates	signal with controls
KLTMITGLEKVSGANVA	EMETREK	QQYNRLPLS	0.67 / 0.43 / 0.02 / 0.57 / 0.12 / 0.48	0/18
KVSEFMRGLMKMQDSIA	DNVTRNN	QQYDRLPLS	2.37 / ND / 2.65 / 2.41 / ND / 2.79	2/18 (2.72)
KISQMVKVGMTHGNSIA	EEAKRAD	QQYHRLPLA	1.06 / 0.43 / 0.47 / 0.83 / 0.98 / 0.81	1/18 (2.12)
MISQVLNTLTKTGNNVA	DLAEREQ	QQYFRLPLS	1.50 / 1.63 / 0.78 / 0.67 / 1.54 / 1.73	1/18 (1.22)
TIGQTLMSGVRNRSNVA	EVSQRLN	QQYDRLPLM	1.10 / 0.94 / 1.00 / 0.85 / 0.85 / 0.83	1/18 (3.44)
SIGGHMKSSMAHRNSVA	DMTNREN	QQYDRLPLS	0.69 / 0.57 / 0.44 / 0.56 / 0.40 / 0.40	2/18 (2.61)
TIQMFMDNLYHNRNNVA	DTSTLGS	QSYDRLPLS	1.09 / 1.69 / 1.34 / 0.98 / 1.59 / 1.88	1/18 (1.97)
IVSQLMIWGTHVKNSIA	EAQTRVN	QQYDRLPLI	ND / 1.97 / 2.93 / ND / 1.54 / ND	0/18
HMSMLTLGGLRTRNSVA	QMTTREN	QQYDRLPLA	ND / ND / ND / ND / ND / ND	0/18
KIGGTLNQLMHKKNNVA	DLVMREN	QQYHRLPLS	0.50 / 0.13 / 0.11 / 0.11 / 0.17 / 0.22	0/18
KISMSINLTFQASNNVA	EMATREQ	QQYNRLPLS	0.61 / 1.11 / 0.79 / 0.92 / 0.77 / 0.87	3/18 (2.55)
KIGMTLNQLMHKKNNVA	DLVTREQ	QQYHRLPLS	0.75 / 0.63 / 0.41 / 0.86 / 0.32 / 0.64	0/18
KLVQFMNRGTHHTSNIA	DAALREE	QQYNRLPLA	1.51 / 0.63 / 0.65 / 0.45 / 0.38 / 0.68	0/18
SISMLLNFESKIGNNVA	QMETRVN	QQYDRLPLS	0.92 / 0.94 / 0.86 / 0.75 / 0.84 / 0.89	1/18 (3.65)
TISQVMNELTRNTNNVA	DLTERTK	QQYFRLPLS	0.59 / 0.10 / 0.55 / 0.10 / 0.21 / 0.15	0/18
KISQMVRVGSTHSNSIA	EEATRAK	QQYHRLPLF	0.94 / 1.32 / 1.04 / 1.13 / 1.56 / 1.35	2/18 (2.95)
SLYEMNYELSGKTHSVA	DNSTRGD	QQYFRLPLE	ND / 1.20 / 0.94 / 0.96 / 0.21 / 0.21	0/18
HITYGMMVAGRHQSSIA	QAEERAK	QQYDRLPLS	1.31 / 1.65 / 1.39 / 0.43 / 1.76 / 0.55	0/18
KLTMITGLEKVQGNNVA	EMETREK	QQYNRLPLS	0.24 / 0.07 / -0.18 / -0.20 / -0.10 / -0.06	0/18
QIYQAMHTLMQNKDNVA	DVTNRTK	QQYFRLPLS	0.30 / 0.19 / 0.22 / -0.06 / 0.37 / 0.31	1/18 (1.78)
MISQLMNMGQFAINSVA	QASIRNH	QQYDRLPLI	1.56 / 1.60 / 2.11 / 2.20 / 2.02 / 1.83	1/18 (2.85)
MLSQMWGVGSKAKNSVA	QASMRFN	QQYDRLPLI	ND / 2.88 / 2.39 / 2.22 / 1.87 / 3.49	4/18 (2.74)
IVSQLMIWGMHVKNSIA	EAQTRVN	QQYDRLPLM	1.52 / ND / 2.85 / 4.52 / 2.73 / 2.21	0/18
MLSQMTGLGQKVRNSVA	QASMRFN	QQYHRLPLM	2.50 / 2.34 / 0.94 / 1.79 / 3.54 / 2.97	0/18
KISQMVRVGSTHSNSIA	EEETRAK	QQYHRLPLS	ND / ND / ND / 1.89 / ND / ND	0/18
HITYGMMVAGRHSKSIA	QAETRAK	QQYDRLPLM	0.45 / 0.44 / 0.26 / 0.38 / 0.37 / 0.49	1/18 (2.41)
MVTQMAMTGMSNKRSVA	NASTREN	QQYHRLPLI	1.12 / 0.90 / 1.17 / 1.15 / 0.98 / 0.84	0/18
TISQMTSLFSQSINNVA	EVSTREP	QQYDRLPLM	1.32 / 1.96 / 1.23 / 1.18 / 1.57 / 1.66	2/18 (2.63)
TISQLYNMGQFAINSVA	QASIRNS	QQYDRLPLI	ND / ND / ND / 2.75 / 3.24 / 3.20	0/18
KLSSITGHMQVEKNNVA	EMETREN	QQYDRLPLS	0.85 / 1.29 / 0.85 / 0.35 / 0.60 / 1.08	0/18
TISDLMGHVSKQTHNVA	DQNTRND	QQYNRLPLS	-0.17 / -0.15 / -0.45 / -0.30 / -0.29 / 0.01	0/18
KIGQTLNTLLHQKNNVA	DLVTREN	QQYFRLPLS	0.15 / 0.04 / -0.06 / 0.01 / 0.27 / 0.24	0/18
SLGLVTMLEYANRNNVA	NNSTREE	QQYDRLPLS	ND / ND / ND / ND / ND / 3.67	0/18
MISQLINMGQFAINSVA	QAETRCN	QQYDRLPLM	ND / ND / ND / 2.23 / 1.59 / ND	0/18

4 of these entries, quoted again:

CDR-L1	CDR-L2	CDR-L3	log10 Kd, replicates	signal with controls
KISQMVRVGSTHSNSIA	EEATRAK	QQYHRLPLF	0.94 / 1.32 / 1.04 / 1.13 / 1.56 / 1.35	2/18 (2.95)
TISQVMNELTRNTNNVA	DLTERTK	QQYFRLPLS	0.59 / 0.10 / 0.55 / 0.10 / 0.21 / 0.15	0/18
MLSQMTGLGQKVRNSVA	QASMRFN	QQYHRLPLM	2.50 / 2.34 / 0.94 / 1.79 / 3.54 / 2.97	0/18
SLGLVTMLEYANRNNVA	NNSTREE	QQYDRLPLS	ND / ND / ND / ND / ND / 3.67	0/18

Values of this round are not directly comparable with the first-round values of the same sequences.
In the paper, a design with two or fewer of six values counts as a poor binder.